Values of other authors, collected in patent US4748177A, “Guanine derivatives” (Warner-Lambert Company, priority 1985, dated 1988).

Tested on: PNP
Conditions: Biochem. Pharm., 31 (2), 163 (1982); cited from earlier work

Nc1nc2nc(N)[nH]c2c(=O)[nH]1 [8-Aminoguanine]
PNP-activity: PNP-activity
